Target: T1, E. coli LptB2FGC (Escherichia coli, UniProt P0ADC6+P0AF98)
T1 construct: made in house
Assay: LPS release assay, E. coli LptB2FGC
Type: biochemical
Conditions: purified E. coli LptB2FGC vs Acinetobacter LptB2FGC

The chains behind the UniProt entries cited, without tags or fusion partners. Where a name states a change or a piece, a line headed by the entry shows the natural chain unless it says otherwise.
UniProt P0ADC6: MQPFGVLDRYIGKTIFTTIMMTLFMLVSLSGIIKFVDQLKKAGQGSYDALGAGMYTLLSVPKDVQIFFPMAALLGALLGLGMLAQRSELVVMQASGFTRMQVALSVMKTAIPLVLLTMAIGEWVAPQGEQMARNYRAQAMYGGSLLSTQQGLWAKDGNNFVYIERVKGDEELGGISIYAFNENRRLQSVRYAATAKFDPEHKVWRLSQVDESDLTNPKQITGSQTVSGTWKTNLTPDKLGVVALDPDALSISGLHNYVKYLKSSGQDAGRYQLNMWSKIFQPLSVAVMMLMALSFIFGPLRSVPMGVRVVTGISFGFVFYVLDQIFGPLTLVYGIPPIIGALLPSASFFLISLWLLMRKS
UniProt P0AF98: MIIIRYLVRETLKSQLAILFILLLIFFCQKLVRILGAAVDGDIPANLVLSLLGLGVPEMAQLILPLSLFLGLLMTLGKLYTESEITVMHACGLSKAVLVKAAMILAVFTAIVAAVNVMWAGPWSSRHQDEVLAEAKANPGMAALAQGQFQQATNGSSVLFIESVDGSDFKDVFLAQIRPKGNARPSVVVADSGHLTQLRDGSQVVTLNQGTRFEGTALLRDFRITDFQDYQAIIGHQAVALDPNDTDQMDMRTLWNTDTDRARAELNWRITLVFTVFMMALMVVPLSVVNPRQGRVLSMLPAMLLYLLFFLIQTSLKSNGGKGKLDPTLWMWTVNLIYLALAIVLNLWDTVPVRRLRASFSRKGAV

## CN1C(=O)[C@H](CCCCN)NC(=O)[C@H](CCCN)NCc2cccnc2Sc2cccc(-c3ccc(C(=O)O)cc3)c2CNC(=O)[C@@H]1Cc1c[nH]c2ccccc12 [Compound 2, Zosurabalpin]
  Fold more resistant to inhibition than Acinetobacter homologue: more than 1,000 fold
